{
  "source": "patent US20240024479A1",
  "about": "“NK CELLS OR T CELLS EXPRESSING CHIMERIC HEMATOPOIETIC GROWTH FACTOR RECEPTORS AND METHODS OF USE” (The United States of America, as represented by the …, priority 2020, published 2024)",
  "key": {"EPOR+ NK-92 cells [1]": {"test_system": "EPOR+ NK-92 cells", "test": "In vitro cell expansion of EPOR+ NK-92 cells", "type": "cell-based, human", "settings": "day 8; 5 U/ml of IL-2 alone", "from_the_text": "Lentiviral production and transduction: Lentivirus gene expression vectors encoding EGFP-P2A linker-human EPOR or EGFP-P2A-human c-MPL were cloned according to our design by VectorBuilder (TX, USA). Plasmid DNA for the above and pCMV-dR8.2 dvpr and pCMV-VSV-G packaging plasmids was purified using ZymoPUREII-EndoZero plasmid maxiprep kit (Zymo Research, CA). Lentiviral particles were generated with HEK293T cells and Lipofectamine3000 reagent (Thermo Fisher Scientific, MA) following the manufacturers' instructions. Viral supernatant was harvested at 24 and 48 hours, pooled, and concentrated with lenti-X concentrator (Takara Bio, Japan) or by centrifugation at 18,600 rpm for 2 hours at 4° C. […] After 5 days post-transduction, cells were stained and sorted with fluorescence-activated cell sorting (FACS) using a BD FACSAria II to purify GFP^+EPOR^+ and GFP^+c-MPL^+ NK cell populations.\nIn vitro cell expansion cultures: The NK-92 (5×10^4 cell/ml) and KHYG-1 (1×10^4 cell/ml) cells were cultured in 1 ml of complete medium in 24-well plate. […] Trypan blue negative cells were counted every other day. […] Viable cells were counted and percentage of GFP^+ cells was acquired on indicated days (NK: day 4 and 6, T: day 3 and 6). The fold change of GFP^+ cells was calculated by multiplying the counted cell number times the fraction GFP^+."}, "EPOR+ NK-92 cells [2]": {"test_system": "EPOR+ NK-92 cells", "test": "Short-term expansion and apoptosis assay, EPOR+ NK-92", "type": "cell-based, human", "settings": "IL-2 200 U/ml alone vs LD IL-2 alone; day 3", "protocol": "In vitro cell expansion cultures: The NK-92 (5×10^4 cell/ml) and KHYG-1 (1×10^4 cell/ml) cells were cultured in 1 ml of complete medium in 24-well plate. […] Trypan blue negative cells were counted every other day. […] For competitive primary NK and T cell expansion assay, all transduced cells (5×10^5/ml for NK and 4×10^5/ml for T cell) containing a mixture of GFP positive (transduced) and GFP negative (untransduced) cells were plated on day 0. Fresh medium with appropriate supplements was replaced every other day for NK cells and only on day 3 for T cell experiment. Viable cells were counted and percentage of GFP^+ cells was acquired on indicated days (NK: day 4 and 6, T: day 3 and 6). The fold change of GFP^+ cells was calculated by multiplying the counted cell number times the fraction GFP^+.\n(§1) Staining was performed in phosphate-buffered saline (PBS) with 2% FBS and 2 mM EDTA and analyzed on a BD LSRFortessa machine. If intracellular staining was required, BD cytofix/cytoperm (BD Biosciences) was applied for cell fixation and permeabilization after surface staining. The apoptosis assay was performed using PE annexinV apoptosis detection kit (BD Biosciences). The data were analyzed on FlowJo software."}, "c-MPL+ NK-92 cells [3]": {"test_system": "c-MPL+ NK-92 cells", "test": "Short-term expansion and apoptosis assay, c-MPL+ NK-92", "type": "cell-based, human", "settings": "IL-2 200 U/ml alone vs LD IL-2 alone; day 3", "protocol": "In vitro cell expansion cultures: The NK-92 (5×10^4 cell/ml) and KHYG-1 (1×10^4 cell/ml) cells were cultured in 1 ml of complete medium in 24-well plate. […] Trypan blue negative cells were counted every other day. […] The short-term cell expansion assay was performed in similar fashion, except cells were initially cultured without IL-2 overnight before adding different cytokines and enumerating the cell number. For competitive primary NK and T cell expansion assay, all transduced cells (5×10^5/ml for NK and 4×10^5/ml for T cell) containing a mixture of GFP positive (transduced) and GFP negative (untransduced) cells were plated on day 0. Fresh medium with appropriate supplements was replaced every other day for NK cells and only on day 3 for T cell experiment. Viable cells were counted and percentage of GFP^+ cells was acquired on indicated days (NK: day 4 and 6, T: day 3 and 6). The fold change of GFP^+ cells was calculated by multiplying the counted cell number times the fraction GFP^+. […]"}, "EPOR+ NK-92 cells [4]": {"test_system": "EPOR+ NK-92 cells", "test": "Flow cytometry of cell signaling and anti-apoptotic proteins, EPOR+ NK-92", "type": "cell-based, human", "protocol": "as §1\n(§2) Expression of target proteins was evaluated afterward by flow cytometry as described above."}, "c-MPL+ NK-92 cells [5]": {"test_system": "c-MPL+ NK-92 cells", "test": "Flow cytometry of cell signaling and anti-apoptotic proteins, c-MPL+ NK-92", "type": "cell-based, human", "from_the_text": "Flow cytometry, reagents and pathway analysis: Fluorochrome-conjugated monoclonal antibodies were used as follows: BD Biosciences: CD56-PE-Cy7 (NCAM16.2), CD3-PE (UCHT1), c-MPL-PE (1.6.1), STAT5(pY694)-Alexa Fluor647 (47/stat5(pY694)), NKp46-APC (9E2), NKp44-PE (p44-8), FAS-PE (DX2) CD62L-V450 (DREG-56); R&D systems: EPOR-PE (FAB307P); Biolegend: Bc1-2-PE (100), TRAIL-APC (RIK-2), CXCR4-BV421 (12G5), KIR3DL1-BV421 (DX9); Abcam: Bcl-xL-PE (ab208747); Cell signaling technology: P-p44/42 MAPK-Alexa Fluor647 (E10) and p-S6 ribosomal protein-PE (D57.2.2E); Beckman Coulter: NKG2A-PE (Z199), KIR2DL1/S1-PE (EB6B), KIR2DL2/3-PE/Cy5.5 (GL183). Staining was performed in phosphate-buffered saline (PBS) with 2% FBS and 2 mM EDTA and analyzed on a BD LSRFortessa machine. If intracellular staining was required, BD cytofix/cytoperm (BD Biosciences) was applied for cell fixation and permeabilization after surface staining. The apoptosis assay was performed using PE annexinV apoptosis detection kit (BD Biosciences). The data were analyzed on FlowJo software.\nas §2"}, "Raji tumor cells": {"test_system": "Raji tumor cells", "test": "Flow cytometry based killing assay, c-MPL+ NK-92 effectors vs Raji", "type": "cell-based, human", "protocol": "The target cells were labeled with 1 μM cell trace violet in some experiments (Thermo Fisher Scientific). The effector and target cells were incubated together in duplicate wells at specific E:T ratio in complete medium without cytokines for 4 hours (total cell number: 200,000 to 250,000 per well in 96-well plate). 7-AAD and Sphero AccuCount Fluorescent particles (Spherotech, IL) were added before analysis by flow cytometry. The absolute number of viable 7-AAD negative target cells was calculated according to bead numbers added (Cooper et al., Leukemia 32:1970-1983, 2018). The percentage of dead cells was calculated relative to target cell only control wells."}, "GFP+ MPL+ NK cells": {"test_system": "GFP+ MPL+ NK cells", "test": "Degranulation assay and cytokine production, c-MPL-transduced primary NK cells with K562", "type": "cell-based, human", "settings": "4 days, K562 1:1", "protocol": "To examine degranulation, cells were washed after two hours and stained with anti-CD107a (H4A3) (BioLegend). To assay cytokine production, GolgiPlug and GolgiStop (BD Biosciences) were added at manufacturer's recommended concentrations within the first hour of co-culture with K562. After 4 hours, cells were washed and stained for cell surface markers, then stained intracellularly with mAb recognizing TNF-α (Mab 11) and IFN-γ (B27) (BD Biosciences)."}, "GFP+ MPL+ cells": {"test_system": "GFP+ MPL+ cells", "test": "Persistence of transduced human NK cells in immunodeficient mice", "type": "in vivo, NSG mice", "settings": "mice administered IL-2 10,000 IU/mouse daily, 4 days", "from_the_text": "Cells were maintained in IL-2-containing medium for 3-4 additional days and averaged approximately 20% GFP^+. Both populations were then mixed at a 1:1 ratio immediately before injection intravenously into NSG mice (such that GFP^+ MPL^+ cells and GFP^+ CD34^+ cells each constituted ˜10% of the mixed cells). Each mouse received 2.2×10^7 total human NK cells. […] MPL-transduced NK cells were identified as GFP^+ MPL^+ while CD34-transduced NK cells were gated as GFP^+ CD34^+. The frequency of transduced cells is presented (FIG. 14A) as a percentage of MHC-I^+ human cells isolated from organs or (FIG. 14B) as percent of total live mononuclear cells recovered from each organ. The legend applies to both FIGS. 14A and 14B. Data from 9 mice per group are shown with NK cells derived from 3 human blood donors. […]\nPersistence of transduced human NK cells in immunodeficient mice: NK cells from human PBMC were transduced with matched lentiviral vectors encoding GFP/MPL or GFP/CD34 then mixed at a 1:1 ratio and injected intravenously into NSG mice (2.2×10^7 total cells/mouse). […] The presence of transduced human cells was quantified in various organs via flow cytometry using antibodies to human MHC class I (W6/32) (BioLegend), c-MPL (1.6.1), CD34 (581) (BD BioSciences), GFP-fluorescence, and Live/Dead Aqua viability dye (Thermo Fisher)."}},
  "data": [
    {"substance": "IL-2: recombinant human (rh) IL-2 (Roche)", "values": [
      {"measurement": "fold expansion of EPOR+ NK-92 cells", "setting": "EPOR+ NK-92 cells [1]", "result": 4.75, "unit": "fold"},
      {"measurement": "proportion of dead/apoptotic cells", "setting": "EPOR+ NK-92 cells [2]", "result": "significantly lower proportions of dead/apoptotic cells"},
      {"measurement": "proportion of dead/apoptotic cells", "setting": "c-MPL+ NK-92 cells [3]", "result": "significantly lower proportions of dead/apoptotic cells"},
      {"measurement": "pSTAT5 and pS6 levels", "setting": "EPOR+ NK-92 cells [4]; IL-2, up to 200 U/ml", "result": "increased pSTAT5 and pS6 levels in a dose dependent manner"},
      {"measurement": "phospho-p44/42 MAPK expression", "setting": "EPOR+ NK-92 cells [4]; cultures supplemented with IL-2 or EPO, 15 minutes", "result": "No alteration"},
      {"measurement": "pSTAT5 and pS6 levels", "setting": "c-MPL+ NK-92 cells [5]; IL-2, up to 200 U/ml", "result": "increased pSTAT5 and pS6 levels in a dose dependent manner"},
      {"measurement": "pS6 expression", "setting": "c-MPL+ NK-92 cells [5]; LD IL-2 alone", "result": 7.16},
      {"measurement": "phospho-p44/42 MAPK expression", "setting": "c-MPL+ NK-92 cells [5]; cultures supplemented with IL-2 or TPO, 15 minutes", "result": "No alteration"},
      {"measurement": "mean percentage of dead Raji cells", "setting": "Raji tumor cells; c-MPL+ NK-92, IL-2 200 U/ml alone, E:T 1:1", "result": 58, "unit": "%"},
      {"measurement": "mean percentage of dead Raji cells", "setting": "Raji tumor cells; c-MPL+ NK-92, IL-2 200 U/ml alone, E:T 10:1", "result": 67, "unit": "%"},
      {"measurement": "mean percentage of dead Raji cells", "setting": "Raji tumor cells; c-MPL+ NK-92, LD IL-2 alone, E:T 1:1", "result": 51, "unit": "%"},
      {"measurement": "mean percentage of dead Raji cells", "setting": "Raji tumor cells; c-MPL+ NK-92, LD IL-2 alone, E:T 10:1", "result": 62, "unit": "%"},
      {"measurement": "degranulation in GFP+ MPL+ NK cells (CD107a)", "setting": "GFP+ MPL+ NK cells; 25 U/ml of IL-2 alone", "result": 48, "unit": "%"},
      {"measurement": "degranulation in GFP+ MPL+ NK cells (CD107a)", "setting": "GFP+ MPL+ NK cells; 500 U/ml IL-2", "result": 86, "unit": "%"},
      {"measurement": "proportions of GFP+ MPL+ and GFP+ CD34+ cells among human cells", "setting": "GFP+ MPL+ cells", "result": "roughly equal proportions"}
    ]}
  ]
}
